The target in the experiment is human SSTR-3 (Homo sapiens, UniProt P32745). In words: Somatostatin receptor binding assay, hSSTR-3. To be noted: [125I-Tyr11]somatostatin-14, CHO-K1 membranes.

Amino acid sequences for entries named in this document (tags omitted). A change or cut given only in a name is not applied to a line headed by its entry.
UniProt P32745: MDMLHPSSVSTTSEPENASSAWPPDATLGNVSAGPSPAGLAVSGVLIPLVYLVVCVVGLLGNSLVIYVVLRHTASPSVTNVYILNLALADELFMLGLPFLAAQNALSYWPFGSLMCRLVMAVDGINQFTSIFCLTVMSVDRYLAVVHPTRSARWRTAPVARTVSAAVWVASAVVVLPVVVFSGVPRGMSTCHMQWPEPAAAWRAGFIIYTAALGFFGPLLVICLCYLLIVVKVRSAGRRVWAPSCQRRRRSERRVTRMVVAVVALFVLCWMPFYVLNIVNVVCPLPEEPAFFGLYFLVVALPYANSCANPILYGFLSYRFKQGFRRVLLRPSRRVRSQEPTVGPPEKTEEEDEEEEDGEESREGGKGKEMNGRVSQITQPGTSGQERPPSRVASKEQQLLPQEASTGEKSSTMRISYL

This note sets out measurements from US5968903A, “Inhibition of H. pylori proliferation” (Biomeasure, Incorporated, priority 1998, dated 1999).

With `C[C@@H](O)[C@@H]1NC(=O)[C@H](CCCCN)NC(=O)[C@@H](Cc2c[nH]c3ccccc23)NC(=O)[C@H](Cc2ccccc2)NC(=O)[C@H](Cc2ccccc2)NC(=O)[C@@H](N)CSSC[C@@H](C(N)=O)NC(=O)[C@H](Cc2ccccc2)NC1=O` [Example 107, H-Cys-Phe-Phe-D-Trp-Lys-Thr-Phe-Cys-NH2], affinity was put at a Ki of 545 nM.

The Ki is the equilibrium dissociation constant of an inhibitor or competing ligand from its target. High values mean weaker binding, low ones tighter binding.
